Assay results: PubChem BioAssay AID2073 (Sanford-Burnham Center for Chemical Genomics, 2009)
This is a selection; strong and weak results do not stand in their true shares. Results with a measured potency or affinity are listed apart. Some of these compounds have results that are not shown, active ones among them. Active and inactive are the calls of the source. Cut-off read from the data, not from the text of the source: active = inhibition mostly above about 51% (no sharp cut-off); inconclusive = no clear call, values can overlap the other calls; inactive = mostly below about 53%.

Chains of the proteins cited; added tags and fusions are not shown.
UniProt Q00975, whole entry: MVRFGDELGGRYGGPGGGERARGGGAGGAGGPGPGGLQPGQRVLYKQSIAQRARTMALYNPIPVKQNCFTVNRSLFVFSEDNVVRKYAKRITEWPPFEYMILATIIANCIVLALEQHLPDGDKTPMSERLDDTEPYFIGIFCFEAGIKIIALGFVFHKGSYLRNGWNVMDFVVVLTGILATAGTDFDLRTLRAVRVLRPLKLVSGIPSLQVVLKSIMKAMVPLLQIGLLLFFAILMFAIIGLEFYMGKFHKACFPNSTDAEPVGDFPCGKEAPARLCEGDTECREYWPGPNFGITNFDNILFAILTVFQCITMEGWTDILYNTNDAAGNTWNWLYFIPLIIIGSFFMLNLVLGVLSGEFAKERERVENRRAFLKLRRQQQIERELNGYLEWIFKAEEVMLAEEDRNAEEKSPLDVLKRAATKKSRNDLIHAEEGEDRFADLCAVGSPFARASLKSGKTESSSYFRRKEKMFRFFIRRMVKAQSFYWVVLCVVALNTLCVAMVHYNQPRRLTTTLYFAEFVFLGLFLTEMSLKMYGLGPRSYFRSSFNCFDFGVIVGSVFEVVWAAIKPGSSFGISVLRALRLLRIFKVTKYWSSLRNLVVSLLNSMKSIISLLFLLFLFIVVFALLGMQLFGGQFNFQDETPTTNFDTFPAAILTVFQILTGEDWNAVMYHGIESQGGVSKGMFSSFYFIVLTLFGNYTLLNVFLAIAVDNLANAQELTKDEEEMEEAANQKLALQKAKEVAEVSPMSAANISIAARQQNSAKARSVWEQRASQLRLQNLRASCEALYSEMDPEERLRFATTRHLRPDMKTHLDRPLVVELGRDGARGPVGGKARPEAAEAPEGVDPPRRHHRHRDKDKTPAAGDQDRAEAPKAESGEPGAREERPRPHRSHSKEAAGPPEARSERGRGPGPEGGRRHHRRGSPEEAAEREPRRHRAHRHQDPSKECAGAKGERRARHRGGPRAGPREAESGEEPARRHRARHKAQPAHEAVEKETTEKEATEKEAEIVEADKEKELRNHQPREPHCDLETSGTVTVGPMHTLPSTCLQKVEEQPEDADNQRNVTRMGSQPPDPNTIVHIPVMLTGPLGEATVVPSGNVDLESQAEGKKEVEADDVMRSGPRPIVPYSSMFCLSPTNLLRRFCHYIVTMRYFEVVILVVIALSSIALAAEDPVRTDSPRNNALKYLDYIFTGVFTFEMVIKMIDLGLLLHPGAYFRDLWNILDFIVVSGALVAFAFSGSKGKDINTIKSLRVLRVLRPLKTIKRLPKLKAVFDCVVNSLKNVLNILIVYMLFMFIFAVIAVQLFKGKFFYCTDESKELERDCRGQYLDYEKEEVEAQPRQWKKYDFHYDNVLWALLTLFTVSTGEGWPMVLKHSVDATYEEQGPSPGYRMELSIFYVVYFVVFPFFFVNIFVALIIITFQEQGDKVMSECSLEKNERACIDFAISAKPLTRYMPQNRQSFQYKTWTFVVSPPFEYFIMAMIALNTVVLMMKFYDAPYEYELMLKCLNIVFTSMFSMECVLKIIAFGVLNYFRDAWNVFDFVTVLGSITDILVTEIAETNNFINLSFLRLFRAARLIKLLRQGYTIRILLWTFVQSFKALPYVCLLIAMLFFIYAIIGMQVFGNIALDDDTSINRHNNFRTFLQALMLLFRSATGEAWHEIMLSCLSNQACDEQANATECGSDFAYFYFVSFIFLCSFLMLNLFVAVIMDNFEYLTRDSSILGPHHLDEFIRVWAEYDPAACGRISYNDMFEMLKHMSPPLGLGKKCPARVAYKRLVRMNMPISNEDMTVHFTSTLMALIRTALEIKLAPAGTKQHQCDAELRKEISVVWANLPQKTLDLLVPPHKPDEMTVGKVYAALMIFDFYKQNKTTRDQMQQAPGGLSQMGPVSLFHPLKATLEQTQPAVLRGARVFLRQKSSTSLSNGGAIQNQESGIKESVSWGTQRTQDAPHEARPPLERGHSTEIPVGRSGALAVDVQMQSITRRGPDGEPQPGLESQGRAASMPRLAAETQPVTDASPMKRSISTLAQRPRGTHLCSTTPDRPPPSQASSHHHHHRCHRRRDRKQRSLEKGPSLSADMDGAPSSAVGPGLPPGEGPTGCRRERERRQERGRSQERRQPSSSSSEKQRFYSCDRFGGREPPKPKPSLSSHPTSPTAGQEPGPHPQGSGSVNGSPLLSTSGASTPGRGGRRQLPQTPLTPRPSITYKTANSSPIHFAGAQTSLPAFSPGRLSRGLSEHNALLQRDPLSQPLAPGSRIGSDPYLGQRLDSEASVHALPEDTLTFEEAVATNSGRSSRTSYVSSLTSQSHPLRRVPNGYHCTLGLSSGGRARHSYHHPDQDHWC

target: Voltage-dependent N-type calcium channel subunit alpha-1B (Homo sapiens) (UniProt Q00975); assay: disruptors of CaV2.2 binding to Mint1 – biochemical, HTRF (AID 2073); conditions: HTRF protein-protein interaction, Mint1-CaV2.2; at 20 µM; active compounds read high

SMILES	inhibition
O=C(NCC1(N2CCCCC2)CCCCC1)c1cccc(Cl)c1	inactive: 5.9%
COc1cccc(C(=O)NCC2(N3CCCCC3)CCCCC2)c1	inactive: -8.4%
COc1ccc(Cl)cc1C(=O)NCC1(N(C)C)CCCCC1	inactive: 22.8%
COc1cc(C(=O)NCC2(N(C)C)CCCCC2)c([N+](=O)[O-])cc1OC	inactive: 14.9%
CN(C)C1(CNC(=O)c2ccc(Br)cc2)CCCCC1	inactive: 6.9%
CN(C)c1cccc(C(=O)NCC2(N(C)C)CCCCC2)c1	inactive: 5.2%
CC(C)Oc1ccc(C(=O)NCC2(N(C)C)CCCCC2)cc1	inactive: 5.6%
COc1ccc(Br)c(C(=O)NCC2(N3CCCCC3)CCCCC2)c1	inactive: 12.8%
O=C(OC1CN2CCC1CC2)C(CO)(c1ccccc1)c1ccccc1 (centres undefined)	inactive: -2.8%
Cc1ccc(C(=O)NCC2(N3CCCCC3)CCCCC2)cc1	inactive: 14.7%
CC(C)N1C(=O)CC2(CCN(CCOC(=O)C(O)(c3ccccc3)c3ccccc3)CC2)C1=O	inactive: -3.8%
CCN(CC)CC(C)C(C)OC(=O)C(O)(c1ccccc1)c1ccccc1 (centres undefined)	inactive: 4.4%
COc1cc(SC)ccc1C(=O)NCC1(N(C)C)CCCCC1	inactive: 6.3%
CN1[C@@H]2CC[C@H]1CC(OC(=O)C(O)(c1ccccc1)c1ccccc1)C2 (some centres undefined)	inactive: 8.8%
O=C(NCC1(N2CCCCC2)CCCCC1)c1cc([N+](=O)[O-])ccc1Cl	inactive: -2.6%
Cc1cc(C(=O)NCC2(N3CCCCC3)CCCCC2)ccc1[N+](=O)[O-]	inactive: 7.5%
CCN1CCCC(OC(=O)C2(O)c3ccccc3C=Cc3ccccc32)C1 (centres undefined)	inactive: 6%
O=C(NCC1(N2CCCCC2)CCCCC1)c1cccc(Br)c1	inactive: 4.4%
COc1ccc(C(=O)NCC2(N(C)C)CCCCC2)cc1	inactive: 8.8%
C=CCN1CCN(CCOC(=O)C(O)(c2ccccc2)c2ccccc2)CC1	inactive: 2.5%
O=C(NCC1(N2CCCCC2)CCCCC1)c1cc(F)c(F)cc1Cl	inactive: 8.4%
Cc1ccccc1C(=O)NCC1(N2CCCCC2)CCCCC1	inactive: -4.9%
CN(C)C1CCCC1OC(=O)C(O)(c1ccccc1)c1ccccc1 (centres undefined)	inactive: 15.3%
CN(C)c1ccc(C(=O)NCC2(N(C)C)CCCCC2)cc1	inactive: -6%
